Test results: PubChem BioAssay AID504523 (Broad Institute, 2011)
The entries are a selection whose mix differs from that of the whole data set. Activity calls are given as the source filed them. Cut-off read from the data, not from the text of the source: active = inhibition above about 12%; inconclusive = no clear call, values can overlap the other calls; inactive = below about 7.3%.

Chains of the proteins cited; added tags and fusions are not shown.
UniProt Q14145, whole entry: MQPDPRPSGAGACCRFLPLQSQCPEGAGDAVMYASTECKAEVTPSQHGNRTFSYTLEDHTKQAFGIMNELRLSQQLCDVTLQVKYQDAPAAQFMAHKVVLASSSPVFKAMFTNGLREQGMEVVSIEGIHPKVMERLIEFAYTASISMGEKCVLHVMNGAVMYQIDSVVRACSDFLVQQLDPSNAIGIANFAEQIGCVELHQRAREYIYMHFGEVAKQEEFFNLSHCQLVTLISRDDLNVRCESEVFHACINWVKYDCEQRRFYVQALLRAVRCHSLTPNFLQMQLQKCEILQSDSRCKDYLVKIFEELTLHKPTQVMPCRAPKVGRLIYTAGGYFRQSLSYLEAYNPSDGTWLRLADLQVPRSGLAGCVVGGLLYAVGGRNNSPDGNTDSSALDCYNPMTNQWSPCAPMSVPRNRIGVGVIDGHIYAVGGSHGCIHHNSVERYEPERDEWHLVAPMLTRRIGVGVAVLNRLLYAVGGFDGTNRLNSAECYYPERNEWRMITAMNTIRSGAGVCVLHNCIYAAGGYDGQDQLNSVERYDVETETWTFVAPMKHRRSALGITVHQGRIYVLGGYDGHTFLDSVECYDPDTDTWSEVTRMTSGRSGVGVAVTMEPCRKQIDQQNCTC
UniProt Q16236, whole entry partner: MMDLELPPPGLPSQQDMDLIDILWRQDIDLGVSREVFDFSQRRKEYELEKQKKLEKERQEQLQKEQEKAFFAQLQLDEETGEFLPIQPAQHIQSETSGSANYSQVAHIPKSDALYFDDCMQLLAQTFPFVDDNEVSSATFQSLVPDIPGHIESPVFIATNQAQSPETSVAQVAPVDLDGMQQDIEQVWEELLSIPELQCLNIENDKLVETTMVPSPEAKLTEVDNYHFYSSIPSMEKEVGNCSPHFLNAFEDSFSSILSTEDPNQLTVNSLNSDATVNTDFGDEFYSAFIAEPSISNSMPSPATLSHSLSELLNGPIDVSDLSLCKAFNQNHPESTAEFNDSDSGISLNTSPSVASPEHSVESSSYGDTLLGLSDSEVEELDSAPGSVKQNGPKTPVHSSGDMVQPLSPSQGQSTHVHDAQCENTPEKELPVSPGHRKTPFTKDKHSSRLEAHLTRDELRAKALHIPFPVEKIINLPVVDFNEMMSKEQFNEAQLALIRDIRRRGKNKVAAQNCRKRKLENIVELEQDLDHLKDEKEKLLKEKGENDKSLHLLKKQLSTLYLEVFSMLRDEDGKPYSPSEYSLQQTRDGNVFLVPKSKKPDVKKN

What follows are compounds tested against Kelch-like ECH-associated protein 1 (Homo sapiens) (UniProt Q14145) (assay: disruptors of Keap1 binding to Nrf2 – biochemical, fluorescence polarization, single point, primary screen (AID 504523;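 note: human Keap1 Kelch domain with fluorescein labeled Nrf2 9mer peptide probe; 0% = neutral control wells and 100% = peptide positive control; higher means more block of Keap1 binding to Nrf2 peptide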)). Settings: Keap1 Kelch-Nrf2 peptide fluorescence polarization, 1536-well; at 9.4 µM; active compounds read high.
`CCC(=O)N(c1ccccc1)C1(COC)CCN(CCn2nnn(CC)c2=O)CC1` was tested, and the inhibition was inactive: -0.17%.
For `CCC(=O)N(c1ccccc1)C1(COC)CCN(CCc2cccs2)CC1`, the inhibition was inactive: -0.242%.
